# Measured values: patent US20230330112A1, “COMPOSITION AND TREATMENT FOR CANCER WITH MUTATIONS” (BRIDGE BIOTHERAPEUTICS, INC., priority 2022, published 2023)
# System: Ba/F3 cells carrying EGFR 19Del-derived Compound A-resistant clones
# Assay: Cell growth-inhibition assay, Compound A-resistant clones from Ba/F3 EGFR 19Del (ENU mutagenesis)
# Type: cell-based, murine
# Details: cetuximab alone; as well as in parental cells
# Protocol: Ba/F3 cells expressing EGFR mutations were exposed to 100 m/mL ENU for 24 hours. The cells were washed and cultured in RPMI with 10% FBS for 24 hours. Subsequently, 1×10^4 cells were plated in 96-well plates in the presence of Compound A. The medium containing Compound A was changed twice weekly for 3 weeks. When the cell growth was observed macroscopically, the cells were transferred to 48-well plates and incubated until they reached confluence in the absence of drug. Using the RNeasy Plus Mini Kit (QIAGEN), total RNA was isolated from resistant clones. Then, RNA was converted to cDNA using ReverTra Ace (TOYOBO) and total EGFR cDNAs were sequenced using a Genetic Analyzer 3130 or 3500XL (APPLIED BIOSYSTEMS).
# A total of 2×10^3 cells were seeded in each well of 96-well plates. After 24 hours, EGFR TKIs were added at the indicated concentrations. After a 72-hour incubation, 10 μL of the Cell Counting Kit-8 solution (DOJINDO LABORATORIES) was added to each well, and the plates were incubated for an additional 3 hours. Absorbance at 450 nm was measured using a multiplate reader (Tecan). The percentage of viable cells was evaluated and compared with those of DMSO-treated controls or PBS-treated controls.
substance,measurement,value
cetuximab,overcoming Compound A-resistant clones (cell growth),able to overcome
